The source of these data is patent publication US8617607B2, “Sustained release formulations of psychoactive drugs” (TYRX, Inc., priority 2008, dated 2013).

For the data set the following is noted: 0.1% solution, PBS, 37° C.

Molecules are shown by their SMILES.

Consider `Cc1cc2c(s1)Nc1ccccc1N=C2N1CCN(C)CC1` [Olanzapine, 2-methyl-4-(4-methyl-1-piperazinyl)-10H-thieno[2,3-b][1,5]benzodiazepine], for which the stability of olanzapine result is reported as “very stable”.
